# Antibody variant affinities, Ab-14 light chain, assay 1

Data: MIT Lincoln Laboratory AlphaSeq set, Engelhart et al. 2022, doi:10.1038/s41597-022-01779-4, as distributed in FLAb.

Target peptide (SARS-CoV-2 spike, HR2 region): PDVDLGDISGINAS

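The starting antibody came from a phage panning campaign against this peptide. AAYL50 was designed without a model: most single CDR substitutions and a random sample of double and triple ones. In AlphaSeq, yeast of one mating type display the scFv and yeast of the other type display the target. After mating in shaken culture at 30 °C for 16 h, diploids were selected and their barcode pairs sequenced. Read counts were normalised to the haploid input and turned into Kd by a linear fit to BCL2-family pairs of known affinity, for each replicate. Each pool was mated in three replicate cultures.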

Each scFv is VH, a (GGGGS)3 linker, VL, as in the parent Ab-14, and differs from it in the CDRs of the light chain only.
VH: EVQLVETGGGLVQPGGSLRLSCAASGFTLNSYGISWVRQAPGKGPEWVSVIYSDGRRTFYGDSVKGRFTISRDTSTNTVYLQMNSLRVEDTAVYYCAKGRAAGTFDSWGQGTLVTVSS
VL: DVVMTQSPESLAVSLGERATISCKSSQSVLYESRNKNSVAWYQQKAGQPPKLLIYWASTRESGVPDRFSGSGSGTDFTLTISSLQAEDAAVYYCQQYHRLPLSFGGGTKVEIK

Substitutions are numbered in sequence along the VL above, starting at 1 (not Kabat).
Numbers give log10(Kd / nM), so 0 is 1 nM and 3 is 1 µM. Smaller is tighter.
Replicates are averaged; those with no signal do not enter the mean.
A pair that was not seen in that replicate is written "ND"; this usually means weak binding, but a binder can also be missed.
Nonspecific signal, from three strains lacking the peptide, appeared in 18% of pairings of library AAYL50, centred on 4.19 (5% of these signals below 2.99); values are not corrected for it. For each scFv, signals with the empty controls are counted beside the result, with their mean in brackets.
For reference, the parent read 0.65 as the reference entry and 1.68 as a member of this library.

| # | changes | replicates, log10 nM | mean, log10 nM | control signals |
|---|---|---|---|---|
| 1 | S26V R60S Q96P | ND / ND / ND | ND | 0 of 9 |
| 2 | E61Q Q95E S103V | 2.43 / 2.49 / 2.83 | 2.58 | 0 of 9 |
| 3 | Q27K Q95S | 1.14 / 1.33 / 1.29 | 1.25 | 0 of 9 |
| 4 | N35F Q96A Y97K | 5.20 / 3.12 / 4.46 | 4.26 | 2 of 9 (4.25) |
| 5 | V29Q A57R T59P | 4.85 / 5.61 / 6.37 | 5.61 | 8 of 9 (4.31) |
| 6 | V29R E32K W56Y | 2.29 / ND / ND | 2.29 | 0 of 9 |
| 7 | E32Q A57W P101S | ND / 3.80 / 5.01 | 4.40 | 7 of 9 (4.66) |
| 8 | S38R V39F L102G | 3.95 / ND / 3.79 | 3.87 | 2 of 9 (4.21) |
| 9 | Q27T A40D R99C | ND / ND / ND | ND | 0 of 9 |
| 10 | S33P P101V S103R | ND / ND / ND | ND | 3 of 9 (4.56) |
| 11 | A57Q T59S R60T | 5.54 / ND / ND | 5.54 | 1 of 9 (3.24) |
| 12 | K36D V39S R60I | ND / 4.19 / 5.58 | 4.89 | 4 of 9 (4.32) |
| 13 | S25L S103C | 1.00 / 1.42 / 2.53 | 1.65 | 1 of 9 (3.15) |
| 14 | Y31S N37Q R60M | 4.29 / ND / 2.79 | 3.54 | 0 of 9 |
| 15 | N35S E61A H98R | 2.27 / 2.12 / 2.26 | 2.22 | 5 of 9 (3.95) |
| 16 | Y31Q S62F Q96N | 1.29 / 1.40 / 1.41 | 1.37 | 7 of 9 (4.14) |
| 17 | Q27I S38C L102F | 5.15 / 3.42 / 3.18 | 3.91 | 1 of 9 (4.24) |
| 18 | N35T N37A Y97N | 1.39 / 1.03 / 1.19 | 1.21 | 2 of 9 (3.84) |
| 19 | A57C H98Q | 2.86 / 2.45 / 4.73 | 3.35 | 0 of 9 |
| 20 | A40W A57S R99T | ND / 4.26 / ND | 4.26 | 2 of 9 (4.71) |
| 21 | W56A R60F R99M | 4.58 / ND / ND | 4.58 | 1 of 9 (4.38) |
| 22 | Y31P S58G R60Q | 5.65 / 4.08 / 3.88 | 4.54 | 2 of 9 (4.46) |
| 23 | Y31P K36C E61T | ND / ND / ND | ND | 0 of 9 |
| 24 | Y31D R34Q Q96R | 0.88 / 1.03 / 0.97 | 0.96 | 3 of 9 (3.81) |
| 25 | Y31H N37E R60T | ND / ND / ND | ND | 0 of 9 |
| 26 | V29C Y31F | 0.79 / 1.01 / 0.88 | 0.89 | 1 of 9 (4.23) |
| 27 | L30M K36N S38V | ND / ND / ND | ND | 0 of 9 |
| 28 | S25K S38D H98R | 1.82 / 2.27 / 2.52 | 2.20 | 0 of 9 |
| 29 | S26N S58T R60T | ND / ND / ND | ND | 0 of 9 |
| 30 | E32R R34I Y97A | ND / ND / ND | ND | 0 of 9 |
| 31 | N37C S58F P101Q | ND / ND / ND | ND | 1 of 9 (4.16) |
| 32 | Q27F A40V S62F | ND / ND / ND | ND | 1 of 9 (2.37) |
| 33 | V29T S38T E61I | ND / ND / ND | ND | 0 of 9 |
| 34 | S38F A40C A57R | ND / 4.49 / ND | 4.49 | 2 of 9 (3.76) |
| 35 | N37G V39T L102S | 4.93 / ND / 5.12 | 5.03 | 8 of 9 (4.24) |
| 36 | Q27Y Q95M Y97E | ND / ND / ND | ND | 0 of 9 |
| 37 | S25N Q27M Q95W | ND / 3.07 / 4.37 | 3.72 | 2 of 9 (4.30) |
| 38 | Q27I H98P | 3.79 / 3.81 / ND | 3.80 | 1 of 9 (4.06) |
| 39 | V29Q Q96M L102M | ND / 4.07 / 4.15 | 4.11 | 3 of 9 (4.21) |
| 40 | V29P W56A E61V | -0.32 / 0.01 / -0.21 | -0.18 | 8 of 9 (5.06) |
| 41 | R34H N35T E61F | 1.14 / 1.09 / 1.20 | 1.15 | 2 of 9 (6.08) |
| 42 | S26N E32D V39G | 6.34 / ND / 4.64 | 5.49 | 2 of 9 (4.59) |
| 43 | R34I Q96Y L102C | ND / ND / ND | ND | 2 of 9 (3.54) |
| 44 | S28V S58P | ND / ND / ND | ND | 2 of 9 (4.32) |
| 45 | N37R S62C | ND / ND / ND | ND | 0 of 9 |
| 46 | W56Q Q96I R99F | 0.79 / 1.09 / 0.74 | 0.88 | 2 of 9 (5.12) |
| 47 | Y31F S33V W56N | 0.07 / 0.37 / 0.19 | 0.21 | 7 of 9 (4.72) |
| 48 | S28D S33C N37V | ND / ND / ND | ND | 0 of 9 |
| 49 | Q27P Y31D A40S | 3.68 / 3.58 / 4.11 | 3.79 | 5 of 9 (4.74) |
| 50 | E32Q A40R R99N | ND / ND / ND | ND | 0 of 9 |
| 51 | E32L T59R R99V | 3.58 / 3.09 / ND | 3.34 | 2 of 9 (5.50) |
| 52 | V29P Y97H P101K | 1.68 / 1.74 / 1.79 | 1.74 | 4 of 9 (4.76) |

The 6 strongest on average among those seen in every replicate, once more:

{"changes": "V29P W56A E61V", "replicates, log10 nM": "-0.32 / 0.01 / -0.21", "mean, log10 nM": "-0.18", "control signals": "8 of 9 (5.06)"}
{"changes": "Y31F S33V W56N", "replicates, log10 nM": "0.07 / 0.37 / 0.19", "mean, log10 nM": "0.21", "control signals": "7 of 9 (4.72)"}
{"changes": "W56Q Q96I R99F", "replicates, log10 nM": "0.79 / 1.09 / 0.74", "mean, log10 nM": "0.88", "control signals": "2 of 9 (5.12)"}
{"changes": "V29C Y31F", "replicates, log10 nM": "0.79 / 1.01 / 0.88", "mean, log10 nM": "0.89", "control signals": "1 of 9 (4.23)"}
{"changes": "Y31D R34Q Q96R", "replicates, log10 nM": "0.88 / 1.03 / 0.97", "mean, log10 nM": "0.96", "control signals": "3 of 9 (3.81)"}
{"changes": "R34H N35T E61F", "replicates, log10 nM": "1.14 / 1.09 / 1.20", "mean, log10 nM": "1.15", "control signals": "2 of 9 (6.08)"}